The assay has as its target Adenosine receptor A3 (Homo sapiens, UniProt P0DMS8).

By UniProt entry, the sequences of proteins in these tests, tags left out.
UniProt P0DMS8, whole entry: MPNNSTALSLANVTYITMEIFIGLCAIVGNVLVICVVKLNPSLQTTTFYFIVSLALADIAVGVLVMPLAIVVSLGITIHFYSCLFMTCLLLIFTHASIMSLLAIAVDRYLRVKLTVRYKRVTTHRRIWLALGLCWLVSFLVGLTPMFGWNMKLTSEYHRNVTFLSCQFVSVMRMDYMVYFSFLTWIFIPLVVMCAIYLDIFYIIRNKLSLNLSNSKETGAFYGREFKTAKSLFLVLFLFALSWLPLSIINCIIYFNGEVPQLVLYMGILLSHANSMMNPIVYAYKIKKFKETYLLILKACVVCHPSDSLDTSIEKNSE

2 compounds from BindingDB's records for doi:10.1007/pl00005131 (UniversitÄT WÜRzburg, 1998) can be followed below.

Values joined by “and” are separate entries in the source; they are usually repeats but may differ in a detail not shown here. Equal values may be shown once.

Regarding `CNC(=O)[C@H]1O[C@@H](n2cnc3c(NCc4ccc(N)c(I)c4)ncnc32)[C@H](O)[C@@H]1O`, the Ki is 0.64 nM.
Consider `CC(Cc1ccccc1)Nc1ncnc2c1ncn2C1OC(CO)C(O)C1O` (configuration not stated) [R-N6-(2-phenylisopropyl) adenosine], for which the Ki was 16.3 nM and 44.6 nM.
